# According to patent publication EP0944648B1, “GLP-1 DERIVATIVES” (NOVO NORDISK A/S, priority 1996, dated 1998):
# Test: Protraction after s.c. administration: plasma concentration in pigs determined by RIA
# Format: in vivo
# Details: 0.5 nmol/kg, healthy pigs, n=2
# Protocol: The protraction of a number GLP-1 derivatives of the invention was determined by monitoring the concentration thereof in plasma after sc administration to healthy pigs, using the method described below. […]. The protraction of other GLP-1 derivatives of the invention can be determined in the same way.
# Pigs (50% Duroc, 25% Yorkshire, 25% Danish Landrace, app 40 kg) were fasted from the beginning of the experiment. […]
# The assay was carried out as follows: 100 µl plasma was mixed with 271 µl 96% ethanol, mixed using a vortex mixer and centrifuged at 2600*g for 30 min. […] Immediately after the centrifugation, the supernatant was decanted and counted in a γ-counter. The concentration in the samples was calculated from individual standard curves. The following plasma concentrations were found, calculated as % of the maximum concentration for the individual compounds (n=2): Table 1
substance,measurement,setting,value
GLP-1(7-37) [reference compound],"plasma concentration, calculated as % of the maximum concentration for the individual compound",2 hours after sc. administration,9%
same,"plasma concentration, calculated as % of the maximum concentration for the individual compound",4 hours after sc. administration,1%
